{"sequences": {"note": "Amino acid sequences for entries named in this document (tags omitted).", "UniProt P35372, whole entry, looked up": "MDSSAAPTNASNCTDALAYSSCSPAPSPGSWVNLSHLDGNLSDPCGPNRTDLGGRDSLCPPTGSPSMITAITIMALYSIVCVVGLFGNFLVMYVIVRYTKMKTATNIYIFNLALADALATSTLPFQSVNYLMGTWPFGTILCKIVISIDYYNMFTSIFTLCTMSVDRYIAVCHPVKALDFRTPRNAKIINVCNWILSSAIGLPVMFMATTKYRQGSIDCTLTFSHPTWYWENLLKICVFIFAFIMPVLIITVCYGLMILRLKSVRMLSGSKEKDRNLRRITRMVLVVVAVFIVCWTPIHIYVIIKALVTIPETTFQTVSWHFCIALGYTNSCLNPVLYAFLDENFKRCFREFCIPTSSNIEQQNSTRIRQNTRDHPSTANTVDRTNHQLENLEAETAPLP", "UniProt P41143, whole entry, looked up": "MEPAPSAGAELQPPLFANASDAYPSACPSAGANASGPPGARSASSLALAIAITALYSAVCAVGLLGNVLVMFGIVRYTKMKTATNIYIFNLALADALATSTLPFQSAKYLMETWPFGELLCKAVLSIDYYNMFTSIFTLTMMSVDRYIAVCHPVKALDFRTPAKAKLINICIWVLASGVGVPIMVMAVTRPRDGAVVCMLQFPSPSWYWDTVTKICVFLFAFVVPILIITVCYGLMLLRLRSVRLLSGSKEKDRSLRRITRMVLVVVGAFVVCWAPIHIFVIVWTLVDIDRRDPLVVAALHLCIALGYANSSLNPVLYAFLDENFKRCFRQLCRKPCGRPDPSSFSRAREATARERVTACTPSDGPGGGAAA"}, "source": "PubChem BioAssay AID504326", "about": "(The Scripps Research Institute Molecular Screening Center, 2011)", "note": "Only a part is listed here, and it is no random draw. Calls of active or inactive are those of the source. No stated cut-off is given here; in the data, active means activation above about 18%; inactive means the rest.", "data": [{"target": "Mu-type opioid receptor (Homo sapiens) + Delta-type opioid receptor (Homo sapiens) (UniProt P35372+P41143)", "experiment": "inducers of mu-delta opioid receptor heterodimers – cell-based, luminescence, primary screen (AID 504326);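 further: 0% = vehicle-treated cells and 100% = reference agonist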", "conditions": "cells, OPRM1-OPRD1 heterodimerization, at 9.3 µM, stronger effect = higher value", "values": [{"compound": "CN(C)CCn1cnc2ccccc21", "activation": "inactive: -2.38%"}, {"compound": "CN(C)C(=O)Oc1noc2ccccc12", "activation": "inactive: -2.03%"}, {"compound": "Cc1ccc(OCCNC(=O)Cn2cnc3c(=O)n(C)c(=O)n(C)c32)cc1C", "activation": "inactive: -0.91%"}, {"compound": "CC(/C=N/NC(=O)Cn1cnc2c1c(=O)n(C)c(=O)n2C)=C\\c1ccco1", "activation": "inactive: -2.39%"}, {"compound": "Cn1c(=O)c2c(ncn2CC(=O)NC2CCCCC2)n(C)c1=O", "activation": "inactive: -1.51%"}, {"compound": "COC(=O)c1cc2c(s1)N=C(c1ccccc1)N(C)P2(=O)N1CCOCC1", "note": "(stereo not drawn)", "activation": "inactive: 0.81%"}, {"compound": "CC(C)NC(=O)Cn1cnc2c1c(=O)n(C)c(=O)n2C", "activation": "inactive: -1.59%"}, {"compound": "Cc1sc2ncnc(NC3CCN(Cc4ccccc4)CC3)c2c1C", "activation": "inactive: 2.65%"}, {"compound": "Cc1ccc(OP(=O)(Nc2ccccn2)Oc2ccc(C)cc2)cc1", "activation": "inactive: -1.73%"}, {"compound": "CC(=O)NC(SC(=S)N(CC(C)C)CC(C)C)C(Cl)(Cl)Cl", "note": "(stereo not drawn)", "activation": "inactive: 3.08%"}, {"compound": "CC(C(=O)Nc1ccc2c(c1)OCO2)n1cnc2c1c(=O)n(C)c(=O)n2C", "note": "(stereo not drawn)", "activation": "inactive: -2.78%"}, {"compound": "Cn1c(=O)c2c(ncn2CC(=O)Nc2ccccc2N2CCOCC2)n(C)c1=O", "activation": "inactive: -1.16%"}, {"compound": "CCc1cccc(CC)c1N(COC)C(=O)Cn1c(C(C)O)nc2ccccc21", "note": "(stereo not drawn)", "activation": "inactive: -2.09%"}, {"compound": "FC(F)(F)c1nc2ccccc2n1CCNc1nc(CN2CCCCC2)cs1", "activation": "inactive: -2.6%"}, {"compound": "O=C1CC(N2CCC(n3c(=O)[nH]c4ccccc43)CC2)C(=O)N1Cc1ccccc1", "note": "(stereo not drawn)", "activation": "inactive: -1.33%"}, {"compound": "O=C(CCCCCNC(=O)N1CCn2c1nc1ccccc12)NCc1ccc(F)cc1", "activation": "inactive: -1.21%"}, {"compound": "Cc1ccc2c(c1)C1CN(C)CCC1N2C(=O)c1cccc(S(=O)(=O)N(C)C)c1", "note": "(stereo not drawn)", "activation": "inactive: -2.12%"}, {"compound": "CC(C)N(C(=O)Cn1c(SCC(=O)Nc2nccs2)nc2ccccc21)C(C)C", "activation": "inactive: -1.05%"}, {"compound": "CSc1nc(N)nc2c1ncn2CC(=O)NCC(c1ccccc1)c1ccccc1", "activation": "inactive: -2.43%"}, {"compound": "Cc1ccc2c(c1)C1CN(C)CCC1N2S(=O)(=O)c1ccccc1", "note": "(stereo not drawn)", "activation": "inactive: 0.09%"}, {"compound": "CC(C)[C@H](NC(=O)N1CCn2c1nc1ccccc12)C(=O)NCCc1ccccc1", "activation": "inactive: -1.6%"}, {"compound": "CN1CCC(N(C)c2ccc(C(N)=O)cc2[N+](=O)[O-])CC1", "activation": "inactive: -0.53%"}, {"compound": "O=C(OC1CN2CCC1CC2)c1ccccc1", "note": "(stereo not drawn)", "activation": "inactive: -4.08%"}, {"compound": "CC(O)CNc1nc2ccccc2n1CC(=O)NC12CC3CC(CC(C3)C1)C2", "note": "(stereo not drawn)", "activation": "inactive: 1.56%"}, {"compound": "CC1CN(CCn2cnc3c(N)ncnc32)CC(C)O1", "note": "(stereo not drawn)", "activation": "inactive: -3.07%"}, {"compound": "CCC(=O)N1C2C3N(C(=O)CC)C1C1N(C(=O)CC)C(C(N1C(=O)CC)N3C(=O)CC)N2C(=O)CC", "activation": "inactive: 1.13%"}, {"compound": "Clc1ccc(N2CCN(Cc3c[nH]c4ncccc34)CC2)cc1", "activation": "inactive: 1.33%"}, {"compound": "Cc1ccc2c(c1)C1CN(C)CCC1N2C(=S)NC(=O)c1ccc(Cl)cc1Cl", "note": "(stereo not drawn)", "activation": "inactive: -3.56%"}, {"compound": "O=C(Cn1c(=O)n(CC(=O)NCc2ccccc2)c2ccccc21)NCc1ccccc1", "activation": "inactive: -0.54%"}, {"compound": "CC(/C=N\\NC(=O)Cn1c(C)nc2ccccc21)=C\\c1ccccc1", "activation": "inactive: 0.41%"}, {"compound": "CCCC(=O)Nc1ccc2c(c1)nc1n2CCN(CCOC)C1", "activation": "inactive: -4.4%"}, {"compound": "Cc1ccc(C)c(Cn2c(=O)c3c(nc4n3CCN4Cc3ccco3)n(C)c2=O)c1", "activation": "inactive: -2.8%"}, {"compound": "CCOC(=O)CSc1nc2ccccc2n1CC(=O)N(C(C)C)C(C)C", "activation": "inactive: -3.29%"}, {"compound": "O=S(=O)(c1ccccc1)N1CCn2c(nc3ccccc32)C1", "activation": "inactive: 0.29%"}, {"compound": "Cn1c(=O)c2c(ncn2CC(=O)N2CCN(C(=O)c3ccco3)CC2)n(C)c1=O", "activation": "inactive: -4.41%"}, {"compound": "O=C1NCN(c2ccccc2)C12CCNCC2", "activation": "inactive: 0.77%"}, {"compound": "COc1ccc(NS(=O)(=O)c2cc(NC(=O)Cn3cnc4c3c(=O)n(C)c(=O)n4C)ccc2C)cc1", "activation": "inactive: -2.28%"}, {"compound": "Cn1c(=O)c2c(ncn2CCNC2=NCCCCC2)n(C)c1=O", "activation": "inactive: -2.21%"}, {"compound": "CC(C)NC(=O)Cn1c(SCC(=O)N2c3ccccc3CC2C)nc2ccccc21", "note": "(stereo not drawn)", "activation": "inactive: -2%"}, {"compound": "O=P1(N(CCCl)CCCl)OCCC2CCCCN21", "note": "(stereo not drawn)", "activation": "inactive: -1.8%"}, {"compound": "O=C(c1ccc(Cl)cc1)N1CCn2c1nc1ccccc12", "activation": "inactive: -2.19%"}, {"compound": "O=C(Cn1cnc2c(NCc3ccccc3)ncnc21)NCc1ccc2[nH]ccc2c1", "activation": "inactive: -0.68%"}, {"compound": "Cc1ccc(CN2C(=O)c3ccccc3NC23CCN(Cc2ccccc2)CC3)cc1", "activation": "inactive: 2.58%"}, {"compound": "CCCS(=O)(=O)N1CCn2c(nc3ccccc32)C1", "activation": "inactive: -0.63%"}, {"compound": "CC(=O)NC(C)c1nc2ccccc2n1CC(=O)N1C(C)CCCC1C", "note": "(stereo not drawn)", "activation": "inactive: -3.13%"}, {"compound": "O=C(Nc1nc2ccccc2n1CCN1CCCCC1)c1ccco1", "activation": "inactive: 0.22%"}, {"compound": "O=C(Cn1c(-c2cscn2)nc2ccccc21)Nc1ccccc1F", "activation": "inactive: -2.68%"}, {"compound": "CCC(=O)Nc1cccc(C(=O)/C=C/c2cc(Br)ccc2OC)c1", "activation": "inactive: -0.26%"}, {"compound": "O=S(=O)(c1ccccc1)c1nnn2c1nc(NC1CCN(Cc3ccccc3)CC1)c1ccccc12", "activation": "inactive: -0.99%"}, {"compound": "COc1ccccc1C(=O)Nc1ccc2c(c1)nc1n2CCN(C2CCCCC2)C1", "activation": "inactive: -2.56%"}, {"compound": "O=C(Cn1cnc2c(NCc3ccccc3)ncnc21)N1CCN(c2ccccn2)CC1", "activation": "inactive: -2.95%"}, {"compound": "O=C(Nc1nc2ccccc2n1CCN1CCCCC1)C1CCCCC1", "activation": "inactive: -2.71%"}, {"compound": "CC1Cc2ccccc2N1C(=O)Cn1cnc2c1c(=O)n(C)c(=O)n2C", "note": "(stereo not drawn)", "activation": "inactive: -2.33%"}, {"compound": "CC(NC(=O)CCNC(=O)N1CCn2c1nc1ccccc12)c1ccccc1", "note": "(stereo not drawn)", "activation": "inactive: -1.56%"}, {"compound": "Cc1ccc(-c2csc(NCCn3c(C(F)(F)F)nc4ccccc43)n2)cc1", "activation": "inactive: -0.03%"}, {"compound": "Cn1c(=O)c2c(nc(CN3CCN(C(=O)c4ccco4)CC3)n2CC(N)=O)n(C)c1=O", "activation": "inactive: -0.69%"}, {"compound": "CC(O)CNc1nc2ccccc2n1CC(=O)NCCc1ccc(Cl)cc1", "note": "(stereo not drawn)", "activation": "inactive: -1.47%"}, {"compound": "O=C(NC1CCS(=O)(=O)C1)NP(=S)(Oc1ccccc1)Oc1ccccc1", "note": "(stereo not drawn)", "activation": "inactive: 1.65%"}, {"compound": "COc1cccc(NC(=O)[C@H](C)NC(=O)N2CCn3c2nc2ccccc23)c1", "activation": "inactive: -2.74%"}, {"compound": "CCNC(=S)/N=C(\\N)N[N+](=O)[O-]", "activation": "inactive: -1.19%"}, {"compound": "COc1cc(/C=N/NC(=O)Cn2cnc3c2c(=O)n(C)c(=O)n3C)ccc1O", "activation": "inactive: -0.18%"}, {"compound": "CCSc1nc2ccccc2n1CC(=O)N1CCOCC1", "activation": "inactive: 0.48%"}, {"compound": "Cc1nc2ccccc2n1C1CC(=O)N(Cc2ccccc2)C1=O", "note": "(stereo not drawn)", "activation": "inactive: 2.17%"}, {"compound": "CC(c1ccccc1)N1CCn2c(nc3cc(NS(C)(=O)=O)ccc32)C1", "note": "(stereo not drawn)", "activation": "inactive: -3.41%"}, {"compound": "S=C(Nc1ccccc1)N1CCn2c1nc1ccccc12", "activation": "inactive: -1.65%"}, {"compound": "c1ccc(CN2CCN(CCN3CCn4c3nc3ccccc34)CC2)cc1", "activation": "inactive: -1.52%"}, {"compound": "O=C(Cn1c(-c2ccco2)nc2ccccc21)N1CCCCC1", "activation": "inactive: -1.61%"}, {"compound": "Cn1c(=O)c2ncn(CC(=O)Nc3ccc(N4CCOCC4)cc3)c2n(C)c1=O", "activation": "inactive: 0.44%"}, {"compound": "CCOC(=O)C1CCCN(C(=O)Cn2cnc3c2c(=O)n(C)c(=O)n3C)C1", "note": "(stereo not drawn)", "activation": "inactive: -1.3%"}, {"compound": "O=C(C1CCCN1S(=O)(=O)c1cccc2cccnc12)N1CCn2c1nc1ccccc12", "note": "(stereo not drawn)", "activation": "inactive: 3.32%"}, {"compound": "Cc1ccc(Cn2c(=O)c3c(nc4n3CCN4Cc3ccco3)n(C)c2=O)cc1", "activation": "inactive: -0.09%"}, {"compound": "Cc1nc2cc(C(F)(F)F)ccc2n1CCNc1nc(-c2cc(Cl)c(N)c(Cl)c2)cs1", "activation": "inactive: -0.99%"}, {"compound": "CC(C)(C)C(=O)N1CCn2c1nc1ccccc12", "activation": "inactive: -3.12%"}]}]}
